System: cGMP and cAMP PDE activity of 786-O fractions

Compound: O=C([O-])C1CCN(c2nc(NCc3ccc4c(c3)OCO4)c3cc(Cl)ccc3n2)CC1.[Na+] [Example E4021]
- Inhibition of cGMP PDE activity of the 786-O profile (100 nM): not inhibited

Compound: COc1ccc(C2CNC(=O)C2)cc1OC1CCCC1 (stereo not drawn) [Rolipram]
- Inhibition of the third peak at fraction 85 (PDE4 activity) (786-O profile): inhibited

Compound: Nc1nc2c(ncn2[C@@H]2O[C@@H]3COP(=O)(O)O[C@H]3[C@H]2O)c(=O)[nH]1 [cGMP, cyclic 3′,5′-guanosine monophosphate]
- Inhibition of cAMP activity of the 786-O profile (5 μM): partially inhibited

Source: patent US6538029B1, “Methods for treatment of renal cell carcinoma” (Cell Pathways, priority 2002, dated 2003)
